The chains behind the UniProt entries cited, without tags or fusion partners. Residues count along the entry.
UniProt P23945, 18-695 limits assumed: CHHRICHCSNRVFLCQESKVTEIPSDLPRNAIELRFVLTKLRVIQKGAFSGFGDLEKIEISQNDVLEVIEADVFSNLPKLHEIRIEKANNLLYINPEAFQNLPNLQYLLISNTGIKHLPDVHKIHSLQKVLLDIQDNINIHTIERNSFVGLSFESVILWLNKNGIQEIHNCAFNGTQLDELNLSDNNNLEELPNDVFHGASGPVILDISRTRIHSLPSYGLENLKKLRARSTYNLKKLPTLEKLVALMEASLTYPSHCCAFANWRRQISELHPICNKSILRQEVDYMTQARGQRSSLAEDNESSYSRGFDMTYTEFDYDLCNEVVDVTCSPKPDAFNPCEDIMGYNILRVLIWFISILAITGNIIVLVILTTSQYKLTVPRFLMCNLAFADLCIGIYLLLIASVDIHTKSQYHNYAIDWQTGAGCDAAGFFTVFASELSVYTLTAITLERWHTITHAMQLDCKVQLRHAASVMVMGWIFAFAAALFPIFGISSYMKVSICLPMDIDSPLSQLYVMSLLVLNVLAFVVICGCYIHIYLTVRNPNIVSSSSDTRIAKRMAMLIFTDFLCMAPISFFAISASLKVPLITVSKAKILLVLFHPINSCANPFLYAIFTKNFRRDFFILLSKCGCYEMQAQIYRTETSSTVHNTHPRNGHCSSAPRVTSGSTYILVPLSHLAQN

In patent US6583179B2, “Substituted aminoalkylamide derivatives as antagonists of follicle stimulating hormone” (Ortho-McNeil Pharmaceutical, Inc., priority 1999, dated 2003):

Target: human FSH receptor (Homo sapiens, UniProt P23945)
Assay: hFSHR CHO cAMP assay (rhFSHR-cLUC cells, FSH-stimulated cAMP, radioimmunoassay)
Conditions: read-out: EC50 hFSHR CHO cAMP; inhibition of cAMP produced by EC70 dose of FSH (4.85 nM); maximum concentration 50 μM

Structure (SMILES) | EC50
COc1ccccc1CCN(CC(=O)N1CCNCC1)S(=O)(=O)c1ccc(-c2cccs2)cc1 | 37900 nM
COc1ccccc1CCN(CC(=O)NCc1ccc(CN)cc1)S(=O)(=O)c1cccc(-c2cccnc2)c1 | 8270 nM
COc1ccccc1CN(CC(=O)N1CCNCC1)S(=O)(=O)c1ccc(-c2cccc(N)c2)cc1 | ≥ 50000 nM
CCOc1ccccc1CCN(CC(=O)NCCCCCCN)S(=O)(=O)c1ccc(-c2ccccc2Cl)cc1 | 290 nM
COc1ccccc1CN(CC(=O)NCCCCCCN)S(=O)(=O)c1ccc(-c2ccccc2C)cc1 | 890 nM
COc1ccccc1CCN(CC(=O)NCc1ccc(CN)cc1)S(=O)(=O)c1ccc([N+](=O)[O-])cc1 | 2130 nM
NCCCCCCNC(=O)CN(CC(c1ccccc1)c1ccccc1)S(=O)(=O)c1ccc(-c2ccccc2Cl)cc1 | 5290 nM
COc1ccccc1CCN(CC(=O)NCc1ccc(CN)cc1)S(=O)(=O)c1cccc(-c2ccccc2OC)c1 | 4110 nM
COc1ccc(-c2ccc(S(=O)(=O)N(CCc3ccccc3OC)CC(=O)N3CCNCC3)cc2)cc1 | 20400 nM
COc1ccccc1CCN(CC(=O)N1CCNCC1)S(=O)(=O)c1ccc(-c2ccccc2F)cc1 | 3760 nM
COc1ccccc1CCN(CC(=O)N1CCNCC1)S(=O)(=O)c1ccc(-c2ccccc2)cc1 | 24300 nM
COc1ccccc1CCN(CC(=O)N1CCNCC1)S(=O)(=O)c1ccc(-c2ccc(C)cc2)cc1 | 10300 nM
NCCCCCCNC(=O)CN(CCc1ccccc1F)S(=O)(=O)c1ccc(-c2ccccc2Cl)cc1 | 410 nM
NCCCCCCNC(=O)CN(CCc1c(Cl)cccc1Cl)S(=O)(=O)c1ccc(-c2ccccc2Cl)cc1 | 280 nM
COc1ccccc1CCN(CC(=O)NCc1ccc(CN)cc1)S(=O)(=O)c1ccc(-c2ccccc2Cl)s1 | 2450 nM
COc1ccccc1CCN(CC(=O)NCc1ccc(CN)cc1)S(=O)(=O)c1cccc(-c2cccc(F)c2)c1 | 2390 nM
COc1ccccc1CN(CC(=O)NCCCCCCN)S(=O)(=O)c1ccc(-c2ccc(Cl)cc2Cl)cc1 | 360 nM
COc1ccccc1CCN(CC(=O)NCc1ccc(CN)cc1)S(=O)(=O)c1cccc(-c2ccccc2C(F)(F)F)c1 | 6760 nM
NCCCCCCNC(=O)CN(CCc1cccs1)S(=O)(=O)c1ccc(-c2ccccc2Cl)cc1 | 110 nM
COc1cc(CCN(CC(=O)NCCCCCCN)S(=O)(=O)c2ccc(-c3ccccc3Cl)cc2)cc(Br)c1OC | > 50000 nM
COc1ccc(OC)c(CCN(CC(=O)NCCCCCCN)S(=O)(=O)c2ccc(-c3ccccc3Cl)cc2)c1 | 90 nM
COc1ccc(-c2ccc(S(=O)(=O)N(CCc3ccccc3OC)CC(=O)N3CCNCC3)cc2)c(OC)c1 | 12600 nM
COc1ccccc1CCN(CC(=O)NCc1ccc(CN)cc1)S(=O)(=O)c1cccc(-c2ccncc2)c1 | 32000 nM
COc1cc(CCN(CC(=O)NCCCCCCN)S(=O)(=O)c2ccc(-c3ccccc3Cl)cc2)cc(-c2ccccc2Cl)c1OC | 620 nM
COc1ccccc1CCN(CC(=O)N1CCNCC1)S(=O)(=O)c1ccc(-c2c(C)noc2C)cc1 | 12500 nM
COc1ccccc1CCN(CC(=O)N1CCNCC1)S(=O)(=O)c1ccc(-c2ccc(C#N)cc2)cc1 | 3480 nM
COc1cccc(-c2ccccc2S(=O)(=O)N(CCc2ccccc2OC)CC(=O)NCc2ccc(CN)cc2)c1 | 5500 nM
COc1ccccc1CN(CC(=O)N1CCNCC1)S(=O)(=O)c1ccc(-c2ccc(C#N)cc2)cc1 | 38200 nM
COc1ccccc1CN(CC(=O)NCC1CCCC(CN)C1)S(=O)(=O)c1ccc(-c2ccccc2OC)cc1 (centres unmarked) | 370 nM

Second part, the compound after the results:

EC50 | Structure (SMILES)
370 nM | NCc1ccc(CNC(=O)CN(CCc2ccccc2)S(=O)(=O)c2ccc(-c3ccccc3Cl)cc2)cc1
440 nM | C[C@@H](CN(CC(=O)NCc1ccc(CN)cc1)S(=O)(=O)c1ccc(-c2ccc(Cl)cc2Cl)cc1)c1ccccc1 [303]
720 nM | C[C@H](CN(CC(=O)NCc1cccc(CN)c1)S(=O)(=O)c1ccc(-c2ccccc2Cl)cc1)c1ccccc1
3350 nM | C[C@@H](CN(CC(=O)NCc1ccc(CN)cc1)S(=O)(=O)c1ccc(-c2cccc(-c3ccccc3)c2)cc1)c1ccccc1
2640 nM | C[C@H](CN(CC(=O)NCc1cccc(CN)c1)S(=O)(=O)c1ccc(-c2cccc(F)c2)cc1)c1ccccc1
450 nM | COc1cc(CCN(CC(=O)NCc2ccc(CN)cc2)S(=O)(=O)c2ccc(-c3ccccc3Cl)cc2)cc(OC)c1
450 nM | C[C@H](CN(CC(=O)NCc1ccc(CN)cc1)S(=O)(=O)c1ccc(-c2ccc(Cl)cc2Cl)cc1)c1ccccc1
150 nM | NCc1ccc(CNC(=O)CN(CCc2ccccc2[N+](=O)[O-])S(=O)(=O)c2ccc(-c3ccccc3Cl)cc2)cc1
820 nM | NCc1ccc(CNC(=O)CN(CCc2ccccn2)S(=O)(=O)c2ccc(-c3ccccc3Cl)cc2)cc1
430 nM | CC(CN(CC(=O)NCc1ccc(CN)cc1)S(=O)(=O)c1ccc(-c2cccc(F)c2)cc1)c1ccccc1 (centres unmarked)
20000 nM | C[C@@H](CN(CC(=O)NCc1ccc(CN)cc1)S(=O)(=O)c1ccc(Br)cc1)c1ccccc1
220 nM | NCc1ccc(CNC(=O)CN(CCc2ccccc2Cl)S(=O)(=O)c2ccc(-c3ccccc3Cl)cc2)cc1
310 nM | C[C@@H](CN(CC(=O)NCc1cccc(CN)c1)S(=O)(=O)c1ccc(-c2ccccc2Cl)cc1)c1ccccc1
14800 nM | CN1CCCC1CCN(CC(=O)NCc1ccc(CN)cc1)S(=O)(=O)c1ccc(-c2ccccc2Cl)cc1 (centres unmarked)
23500 nM | COc1ccccc1CCN(CC(=O)NCc1ccc(CN)cc1)S(=O)(=O)c1ccc(C)cc1
250 nM | Cc1ccccc1-c1ccc(S(=O)(=O)N(CC(=O)NCCCCCN)C[C@H](C)c2ccccc2)cc1
420 nM | C[C@@H](CN(CC(=O)NCc1ccc(CN)cc1)S(=O)(=O)c1ccc(-c2ccc(F)c(Cl)c2)cc1)c1ccccc1
≥ 50000 nM | C[C@H](CN(CC(=O)NCc1ccc(CN)cc1)C(=O)Nc1ccc(-c2ccccc2)cc1)c1ccccc1
120 nM | Cc1c(Cl)cccc1-c1ccc(S(=O)(=O)N(CC(=O)NCc2ccc(CN)cc2)C[C@H](C)c2ccccc2)cc1
870 nM | COc1cccc(S(=O)(=O)N(CC(=O)NCc2ccc(CN)cc2)C[C@@H](C)c2ccccc2)c1
1890 nM | Cc1csc(-c2ccc(S(=O)(=O)N(CC(=O)NCc3ccc(CN)cc3)C[C@H](C)c3ccccc3)cc2)c1
350 nM | C[C@H](CN(CC(=O)NCc1ccc(CN)cc1)S(=O)(=O)c1ccc(-c2ccccc2)cc1)c1ccccc1
210 nM | Cc1ccc(-c2ccc(S(=O)(=O)N(CC(=O)NCc3ccc(CN)cc3)C[C@H](C)c3ccccc3)cc2)cc1Cl
290 nM | NCc1ccc(CNC(=O)CN(CCc2ccc(Cl)c(Cl)c2)S(=O)(=O)c2ccc(-c3ccccc3Cl)cc2)cc1
> 50000 nM | C[C@@H](CN(CC(=O)NCc1ccc(CN)cc1)S(=O)(=O)c1ccc(-c2cccc3c2Sc2ccccc2S3)cc1)c1ccccc1
410 nM | COc1ccc(S(=O)(=O)N(CC(=O)NCc2ccc(CN)cc2)C[C@@H](C)c2ccccc2)cc1
160 nM | COc1ccc(-c2ccc(S(=O)(=O)N(CC(=O)NCc3ccc(CN)cc3)C[C@@H](C)c3ccccc3)cc2)cc1
790 nM | COc1ccccc1CN(CC(=O)NCc1cccc(CN)c1)S(=O)(=O)c1ccc(-c2ccccc2Cl)cc1
2980 nM | COc1ccccc1CCN(CC(=O)NCc1ccc(CN)cc1)S(=O)(=O)c1cccc(-c2cccc(Cl)c2)c1
850 nM | C[C@@H](CN(CC(=O)NCc1ccc(CN)cc1)S(=O)(=O)c1ccc(-c2cccc(Cl)c2)cc1)c1ccccc1 [418]
